Measurements from patent publication US10894087B2, “Multi-arm polymeric prodrug conjugates of cabazitaxel-based compounds” (Nektar Therapeutics, priority 2010, dated 2021).
Where two headings read alike, the source gives them in different places.

Columns and labels:
[1] = Maximum tolerated dose (MTD) study of PEGylated conjugates of cabazitaxel in athymic mice; type: in vivo, female athymic nu/nu mice; conditions: qw x 3, iv; for BW Nadir / BW Nadir (day) / Treatment-Related Deaths: MTD study 30K and 40K conjugates; for Treatment-Related Deaths: N=5
Experimental: Purpose. This study was performed to determine appropriate doses of each compound for tumor xenograft studies. In those studies, it is desirable to administer the maximum dose of test compound that will not cause excessive loss of body weight. In general, loss of ˜15% of the initial body weight of the animal is typically the maximum desired.
Experimental procedure. MTD for 4-arm-conjugated to cabazitaxel were determined in female athymic nu/nu mice using standard methods. Briefly, 8-12 week old mice were administered test compounds or cabazitaxel intravenously at one week intervals for a total of three doses per mouse (qw×3, iv) as shown in Tables 1 and 2. For all PEG-conjugated test compounds, the doses of both the conjugate and released cabazitaxel, calculated from the cabazitaxel content of the respective conjugate, are shown. […] PEG-cabazitaxel conjugates were prepared in D5W. […] Mice were observed daily for clinical signs and body weights were recorded on days 1-5 and then biweekly until the end of study. All procedures were conducted in compliance with IACUC requirements. Any individual animal with a single observation of greater than 30% body weight loss or three consecutive measurements of greater than 25% body weight loss was euthanized. For any group with two measurements of mean body weight loss of greater than 20%, dosing was stopped and recovery was allowed. Within a group with greater than 20% mean weight loss, individual animals greater than 30% body weight loss were euthanized. Compound dosing was terminated for any group in which mean weight loss exceeded 20% or >10% of animals died. Moribund animals were euthanized and all animals were euthanized at end of study (day 30).
Results. The results for the study MTD “20K Conjugates” are summarized in Table 3 and FIG. 1 while the results for the MTD “30K and 40K Conjugates” study are summarized Table 4 and FIG. 2. […] It should be noted that this is not meant to be a definitive MTD, but is simply a guide to select an appropriate dose for conducting tumor xenograft studies using this administration route and schedule. Note too, that these MTD are given as cabazitaxel equivalents. The actual dose of each conjugate must be corrected for the wt % of cabazitaxel in that specific conjugate.

[2] = tested on: H460 non-small cell lung cancer (NSCLC) implants; conditions: 30K and 40K conjugate xenograft study, iv, qwk x 3; for Deaths: N=10
Experimental: Purpose. Studies were conducted to assess the growth inhibitory effects of PEGylated-conjugates of cabazitaxel on H460 non-small cell lung cancer (NSCLC) implants in athymic nu/nu mice.
Experimental plan. These studies were conducted using routine methods and materials that are familiar to those skilled in the art. Briefly, 8 to 12 week old female nu/nu mice were injected subcutaneously in the flank with 1×10^7 H460 tumor cells in 0.2 mL sterile buffer. […] Animals received three intravenous doses of test article at one week intervals beginning on day 1. Cabazitaxel solutions were prepared in D5W containing 5% Tween 80:10% ethanol. PEG-cabazitaxel conjugates were prepared in D5W. The administration volume for all test articles was 10 mL/kg. The test doses were selected to represent the MTD and ½ the MTD for each test compound. The tables list the actual mg/kg for each test article and the corresponding cabazitaxel equivalent calculated based on the weight-percent cabazitaxel content for each PEGylated conjugate.
Animals were weighed on days 1-5, 7, 9, 11, 13 then biweekly until the end of the study. Tumor sizes were measured using calipers biweekly throughout the study and tumor volumes were calculated using the formula for an ellipsoid sphere: L×W^2/2=mm^3, where L and W are the major axis dimensions of the tumor in mm. Additional parameters that were monitored were the number of non-specific deaths, number of partial and complete tumor regressions, number of tumor-free survivors, and the time required for individual animals' tumors to reach 2000 mm^3. The median time for a tumor to reach 2000 mm^3 in the treatment groups (T) and control group (C) was used to calculate of the overall delay in the growth of the median tumor (TGD). Animals were monitored individually until reaching the experimental endpoint: tumor size of 2000 mm^3 or 45 days, whichever came first. […] When the study endpoint was reached, the animals were euthanized.

Which results are given for “4-ARM-PEG30K-Glycinate-Linked Cabazitaxel Conjugate [4-arm-PEG30K-CM-glycine-Cabazitaxel]”?
BW Nadir ([1]; 7.5 mg/kg cabazitaxel eq.): −0.2%; BW Nadir (day) ([1]; 7.5 mg/kg cabazitaxel eq.): 2 days; Treatment-Related Deaths ([1]; 7.5 mg/kg cabazitaxel eq.): 0; BW Nadir ([1]; 15 mg/kg cabazitaxel eq.): −3.7%; BW Nadir (day) ([1]; 15 mg/kg cabazitaxel eq.): 11 days; Treatment-Related Deaths ([1]; 15 mg/kg cabazitaxel eq.): 0; BW Nadir ([1]; 30 mg/kg cabazitaxel eq.): −23.5%; BW Nadir (day) ([1]; 30 mg/kg cabazitaxel eq.): 24 days; Treatment-Related Deaths ([1]; 30 mg/kg cabazitaxel eq.): 0; Estimated MTD, cabazitaxel equivalents ([1]; athymic nu/nu mice, guide value, not a definitive MTD): 20 mg/kg; BW Nadir (Lowest Mean Body Weight for Group) ([2]; 10 mg/kg cabazitaxel eq.): −5.9%; BW Nadir (d), day of nadir ([2]; 10 mg/kg cabazitaxel eq.): (22) d; Deaths ([2]; 10 mg/kg cabazitaxel eq.): 0; BW Nadir (Lowest Mean Body Weight for Group) ([2]; 20 mg/kg cabazitaxel eq.): −9.8%; BW Nadir (d), day of nadir ([2]; 20 mg/kg cabazitaxel eq.): (22) d; Deaths ([2]; 20 mg/kg cabazitaxel eq.): 0
